Screen for blockers of NLRP3-driven cell death, PubChem AID 2061109 (Seoul National University).
Cells: mouse bone marrow macrophages; stimulus: LPS priming, then nigericin; dose: 5 µM; read-out: propidium iodide uptake by live imaging.
Inhibition in %: 0 = stimulated control, 100 = untreated cells; values below 0 were filed as 0. * marks the depositor's active call (above 70%). Part of the library is listed.

{"smiles": "C[C@@H](O)CCCCn1c(=O)c2c(ncn2C)n(C)c1=O", "inhibition [%]": "0.0"}
{"smiles": "CN(C)c1ccc(C=C2C(=O)Nc3ccccc32)c2ccccc12", "inhibition [%]": "0.0"}
{"smiles": "CN(CCOc1ccc(CC2SC(=O)NC2=O)cc1)c1ccccn1.O=C(O)/C=C\\C(=O)O", "inhibition [%]": "0.0"}
{"smiles": "C[C@H]1CNC(=O)c2cnn3cc4c(nc23)N(Cc2cc(F)cnc2O1)[C@@H]1CCC[C@@H]1O4", "inhibition [%]": "0.0"}
{"smiles": "O=C(NCCO)c1ccc2c(c1)nc(Nc1cccc(Cl)c1)c1ccncc12", "inhibition [%]": "0.0"}
{"smiles": "Cc1nnc(C(=O)NC(C)(C)c2nc(C(=O)NCc3ccc(F)cc3)c(O)c(=O)n2C)o1", "inhibition [%]": "0.0"}
{"smiles": "C[C@@H]1O[C@@H](Oc2cc(O)c3c(=O)c(O)c(-c4ccc(O)cc4)oc3c2O)[C@H](O)[C@H](O[C@@H]2O[C@H](CO)[C@@H](O)[C@H](O)[C@H]2O)[C@H]1O", "inhibition [%]": "0.0"}
{"smiles": "COC(=O)[C@@H](N)CCCN=C(N)N[N+](=O)[O-].Cl", "inhibition [%]": "0.0"}
{"smiles": "CCCC(CCC)C(=O)[O-].[Na+]", "inhibition [%]": "0.0"}
{"smiles": "O=C(/C=C\\n1cnc(-c2cc(C(F)(F)F)cc(C(F)(F)F)c2)n1)NNc1ccccn1", "inhibition [%]": "0.0"}
{"smiles": "NS(=O)(=O)c1ccc(N2N=C(C(F)(F)F)CC2c2c[nH]c3c(Cl)cccc23)cc1", "inhibition [%]": "0.0"}
{"smiles": "COc1ccc(F)cc1C(=O)NCc1ccc(-c2nn([C@@H](C)C(F)(F)F)c(N)c2C(N)=O)cc1", "inhibition [%]": "0.0"}
{"smiles": "CN[C@H](CC(N)=O)C(=O)NC(C(=O)N[C@@H]1C(=O)N2[C@@H]1SC(C)(C)[C@@H]2C(=O)O)c1ccc(O)cc1", "inhibition [%]": "0.0"}
{"smiles": "C[C@]1(c2ncncc2F)NC(=O)c2cc(-c3cn[nH]c3)ccc21.O", "inhibition [%]": "0.0"}
{"smiles": "CCCCCCCCO", "inhibition [%]": "0.0"}
{"smiles": "CCN(Cc1cc(C(F)(F)F)ccc1-c1cc(CC(=O)O)ccc1OC)C(=O)NCc1ccccc1", "inhibition [%]": "0.0"}
{"smiles": "CCOC(=O)/C=C/c1ccc(O)cc1", "inhibition [%]": "0.0"}
{"smiles": "NC(=O)[C@@H]1CC[C@H](c2ccc(OCc3ccccc3F)cc2)N1", "inhibition [%]": "0.0"}
{"smiles": "Cc1ccccc1C(C(=O)NC1CCCCC1)N(C(=O)Cn1cnc2ccccc21)c1cccc(F)c1", "inhibition [%]": "0.0"}
{"smiles": "Cc1cc(O)c(-c2cc(O)c(C)cc2O)cc1O", "inhibition [%]": "0.0"}
{"smiles": "CCCCN1CCCC[C@H]1C(=O)Nc1c(C)cccc1C.Cl", "inhibition [%]": "0.0"}
{"smiles": "CN(C)CCCSC(=N)N.Cl.Cl", "inhibition [%]": "0.0"}
{"smiles": "CC[N+]1(C/C2=C/CCCCCC2)CCC(NC(=O)C2c3cc(Cl)ccc3Oc3ccc(Cl)cc32)CC1.[I-]", "inhibition [%]": "0.0"}
{"smiles": "Cc1cc(=O)c2c(O)cc(OCC3CS3)cc2o1", "inhibition [%]": "0.0"}
{"smiles": "O=C(NCC1(N2CCN(c3ccccc3)CC2)CCOCC1)c1cccnc1Sc1ccccc1", "inhibition [%]": "0.0"}
{"smiles": "CCCn1c(=O)c2[nH]c(C34CCC(CCC(=O)O)(CC3)CC4)nc2n(CCC)c1=O", "inhibition [%]": "0.0"}
{"smiles": "O=C(Nc1nc(-c2ccc(O)c(O)c2)c(-c2ccccc2)s1)c1ccc(O)c(O)c1", "inhibition [%]": "0.0"}
{"smiles": "CCCSc1nc(N2CCC[C@@H](CC(=O)O)C2)ccc1C(=O)NC1CCCCC1", "inhibition [%]": "0.0"}
{"smiles": "CCNC(=O)Nc1ccc(-c2nc(N3CCOC[C@@H]3C)c3c(n2)C(C)(C)S(=O)(=O)C3)cc1", "inhibition [%]": "0.0"}
{"smiles": "CCN(CC)c1ccc(C=O)cc1", "inhibition [%]": "0.0"}
{"smiles": "O=C(Cc1ccc(O)cc1)N1CCc2c([nH]c3ccccc23)C1", "inhibition [%]": "0.0"}
{"smiles": "CN(C)CC(=O)Nc1ccc2[nH]c(=O)c3ccccc3c2c1.Cl", "inhibition [%]": "0.0"}
{"smiles": "O=C(CS(=O)(=O)c1ccccc1)c1ccc(C(F)(F)F)cc1", "inhibition [%]": "0.0"}
{"smiles": "O=c1[nH]c(=O)c2[nH]cnc2[nH]1", "inhibition [%]": "0.0"}
{"smiles": "C/C=C(/C)C(=O)O[C@H]1C(C)=C2[C@H]([C@@H]1OC(=O)CCCCCCC)[C@@](C)(OC(C)=O)C[C@H](OC(=O)CCC)[C@@]1(O)[C@H]2OC(=O)[C@@]1(C)O", "inhibition [%]": "0.0"}
{"smiles": "CC1(C)C[C@@H]1C(=O)N/C(=C\\CCCCSC[C@H](N)C(=O)O)C(=O)O", "inhibition [%]": "0.0"}
{"smiles": "CC(C)(C)NCC(O)c1ccccc1Cl.Cl", "inhibition [%]": "0.0"}
{"smiles": "Cn1ccc(-c2cc(Cl)c(Cl)c3[nH]c4c(c23)CN(C(=O)CO)CC4)n1", "inhibition [%]": "0.0"}
{"smiles": "C=CCc1ccc(O)c(-c2ccc(O)c(CC=C)c2)c1", "inhibition [%]": "0.0"}
{"smiles": "CO[C@H]1C[C@H](O[C@@H]2/C(C)=C/C[C@@H]3C[C@@H](C[C@]4(CC[C@H](C)[C@@H](C5CCCCC5)O4)O3)OC(=O)[C@@H]3C=C(C)/C(=N\\O)[C@H]4OC/C(=C\\C=C\\[C@@H]2C)[C@]43O)O[C@@H](C)[C@@H]1O", "inhibition [%]": "0.0"}
{"smiles": "Cn1nccc1[C@H]1CCCC[C@@H]1Oc1cc(F)c(S(=O)(=O)Nc2ccncn2)cc1Cl", "inhibition [%]": "0.0"}
{"smiles": "CCC(=C/[C@H](C)C/C=C/C(C)=C/[C@@H](C)C(=O)[C@@H](C)[C@H](O)[C@@H](C)C/C(C)=C/C(=O)O)/C=C/[C@@H]1OC(=O)C=C[C@@H]1C", "inhibition [%]": "0.0"}
{"smiles": "C=CC(=O)N1C[C@H](C)N(c2nc(=O)n(-c3c(C4CC4)ncnc3C3CC3)c3nc(-c4c(N)cccc4F)c(F)cc23)C[C@H]1C", "inhibition [%]": "0.0"}
{"smiles": "CCCCN(CC)c1nc(C)nc2c1c(C)c(C)n2-c1c(C)cc(C)cc1C.Cl", "inhibition [%]": "0.0"}
{"smiles": "Cl.O.O=C1Cc2cc(CCN3CCN(c4nsc5ccccc45)CC3)c(Cl)cc2N1", "inhibition [%]": "0.0"}
{"smiles": "NC(N)=NCCS.NC(N)=NCCS.O=S(=O)(O)O", "inhibition [%]": "0.0"}
{"smiles": "Cc1cn([C@H]2O[C@@H](CO)[C@H](O)[C@H]2F)c(=O)[nH]c1=O", "inhibition [%]": "0.0"}
{"smiles": "CNC(=O)c1cc2c(Oc3ccc(NC(=S)NC(=O)Cc4ccccc4)cc3F)ccnc2cc1OC", "inhibition [%]": "0.0"}
{"smiles": "CCc1nc2c(C)nc(C)cc2n1-c1ccc(CCNC(=O)NS(=O)(=O)c2ccc(C)cc2)cc1", "inhibition [%]": "0.0"}
{"smiles": "Cn1c(=O)c2[nH]cnc2n(C)c1=O", "inhibition [%]": "0.0"}
{"smiles": "C=CC(=O)Nc1cccc(-c2c(-c3ccccc3)oc3ncnc(N[C@H](CO)c4ccccc4)c23)c1", "inhibition [%]": "0.0"}
{"smiles": "Cc1nc2c(O[C@H]3CCOc4cc(F)cc(F)c43)cc(C(=O)N(C)C)cc2[nH]1", "inhibition [%]": "0.0"}
{"smiles": "CN1CCN(C(=O)CN[C@@H]2C[C@H]2c2ccc(OCc3ccccc3)cc2)CC1.Cl.Cl", "inhibition [%]": "0.0"}
{"smiles": "CCC(=NNC(=O)c1ccnc(NCCCN2CCOCC2)c1)c1ccc(Cl)cc1O", "inhibition [%]": "0.0"}
{"smiles": "CCOC(=O)N1c2ccc(C(F)(F)F)cc2[C@@H](N(Cc2cc(C(F)(F)F)cc(C(F)(F)F)c2)c2ncc(OCCCC(=O)O)cn2)C[C@H]1CC", "inhibition [%]": "0.0"}
{"smiles": "CC(C)(C)OC(=O)N1CCN(C(=O)n2ncc(-c3ccc(OC(F)(F)F)cc3)n2)C(Cc2ccccc2)C1", "inhibition [%]": "0.0"}
{"smiles": "N#Cc1ccccc1OCC(O)CNCCNC(=O)Nc1ccccc1", "inhibition [%]": "0.0"}
{"smiles": "O=C(NC[C@H](O)CO)c1ccncc1Nc1ccc(I)cc1F", "inhibition [%]": "0.0"}
{"smiles": "COc1cc2c3c(n(CCCn4ccnc4)c(=O)c2cc1OC)-c1cc2c(cc1C3=O)OCO2", "inhibition [%]": "0.0"}

The first 3 compounds once more:

smiles | inhibition [%]
C[C@@H](O)CCCCn1c(=O)c2c(ncn2C)n(C)c1=O | 0.0
CN(C)c1ccc(C=C2C(=O)Nc3ccccc32)c2ccccc12 | 0.0
CN(CCOc1ccc(CC2SC(=O)NC2=O)cc1)c1ccccn1.O=C(O)/C=C\C(=O)O | 0.0